Data published in PubChem BioAssay AID602329 (Broad Institute, 2012).
The list shows a part of the results, in another mix than the full data. Active and inactive are the calls of the source.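 The calls were made as follows: active = mean normalized replicate activity at least 40 and at least half of replicates scoring 40 or more; inconclusive = only one of the two criteria met; inactive = mean below 40 and under half of replicates reaching 40.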

Sequences of proteins named here, by UniProt entry; tags and fusion partners are left off. A change or cut given only in a name is not applied to a line headed by its entry.
UniProt Q92698: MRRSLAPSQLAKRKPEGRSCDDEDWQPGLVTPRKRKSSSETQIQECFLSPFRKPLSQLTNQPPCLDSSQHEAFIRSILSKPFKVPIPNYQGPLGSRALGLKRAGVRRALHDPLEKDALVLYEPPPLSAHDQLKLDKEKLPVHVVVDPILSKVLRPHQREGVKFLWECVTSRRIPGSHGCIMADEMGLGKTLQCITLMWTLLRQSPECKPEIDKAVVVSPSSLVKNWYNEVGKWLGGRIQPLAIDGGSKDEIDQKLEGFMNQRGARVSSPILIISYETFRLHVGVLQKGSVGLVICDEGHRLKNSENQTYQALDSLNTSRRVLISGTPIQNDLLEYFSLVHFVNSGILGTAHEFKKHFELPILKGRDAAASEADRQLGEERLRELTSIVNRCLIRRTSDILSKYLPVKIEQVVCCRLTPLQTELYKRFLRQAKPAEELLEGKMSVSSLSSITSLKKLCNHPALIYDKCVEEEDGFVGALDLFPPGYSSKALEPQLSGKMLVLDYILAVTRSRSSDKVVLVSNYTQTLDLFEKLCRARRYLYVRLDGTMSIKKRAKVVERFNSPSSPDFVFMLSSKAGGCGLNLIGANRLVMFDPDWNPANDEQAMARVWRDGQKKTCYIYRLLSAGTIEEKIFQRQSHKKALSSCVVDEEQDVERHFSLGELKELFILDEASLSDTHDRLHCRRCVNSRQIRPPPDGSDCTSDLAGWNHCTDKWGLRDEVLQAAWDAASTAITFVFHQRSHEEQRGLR

These compounds were tested against DNA repair and recombination protein RAD54-like (Homo sapiens) (UniProt Q92698) (assay: inhibitors of human RAD54 branch migration, primary screen, biochemical, fluorescence, single point (AID 602329;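 also: 0% = median of neutral control wells and 100% = median of positive control wells; inhibitors cause a drop in the FAM fluorescence signal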)). Conditions: RAD54 Holliday junction branch migration, FAM/BHQ fluorescence; at 10.4 µM; active compounds read high.
With `O=C(O)CNc1ccc([As](=O)(O)O)cc1` the inhibition was inactive: -1.43%. In the case of `O=[N+]([O-])c1cccc(NC2=NCC(CBr)S2)c1` (stereo unspecified), the inhibition is reported as inactive: -8.78%. For `CCc1nc2c(n1)c1c(non1O)c1c2no[n+]1[O-]`, the inhibition was inactive: 9.14%. In the case of `CC(=O)N1C2C3N(C(C)=O)C1C1N(C(C)=O)C(C(N1C(C)=O)N3C(C)=O)N2C(C)=O`, the inhibition is reported as inactive: 2.22%. `O=[N+]([O-])c1cccc2n[nH]nc12` was tested, and the inhibition was inactive: -0.643%. In the case of `COc1ccc(C2=NCC(CBr)S2)cc1` (stereo unspecified), the inhibition is reported as inactive: -1.66%. For `c1cc(-c2nn[nH]n2)ccc1-c1nn[nH]n1`, the inhibition was inactive: 1.72%. With `CC1CCN(C(=O)Oc2c(Cl)cc(Cl)c3cccnc23)CC1` the inhibition was inactive: -6.52%. In the case of `CC(C)c1nc(Nc2ccccc2)n(P(=O)(N(C)C)N(C)C)n1`, the inhibition is reported as inactive: -5.79%. `Nc1ccc([As](=O)(O)c2ccc(N)cc2)cc1` was tested, and the inhibition was inactive: 3.17%. For `C[N+]1=C2C=CC=CC=C2SC12C([N+](=O)[O-])=CC([N+](=O)[O-])=C[C-]2[N+](=O)[O-]` (stereo unspecified), the inhibition was inactive: -2.72%. For `Clc1ccc(Cl)c(NC2=NCC(CBr)S2)c1` (stereo unspecified), the inhibition was inactive: 10.6%. In the case of `CN1CCCC(OC(=O)C(c2ccccc2)c2ccccc2)C1` (stereo unspecified), the inhibition is reported as inactive: -18.9%. For `Cc1ccc(OP(=O)(Nc2nccs2)Oc2ccc(C)cc2)cc1`, the inhibition was inactive: -0.988%. `CN(C(=O)Cc1ccc(Cl)c(Cl)c1)[C@H]1CCCC[C@H]1N1CCCC1` was tested, and the inhibition was inactive: -11.6%. In the case of `Cc1ccc(N/C(=N/P(=O)(N2CCOCC2)N2CCOCC2)N2CCOCC2)cc1`, the inhibition is reported as inactive: 14.4%. With `Oc1ccccc1CNc1ccccn1` the inhibition was inactive: 8.98%. With `O=C(NC(Sc1ccncn1)C(Cl)(Cl)Cl)c1ccccc1` (stereo unspecified) the inhibition was inactive: 1.82%. For `CC(C)CC(=O)NC(Sc1ccc(Cl)cc1)C(Cl)(Cl)Cl` (stereo unspecified), the inhibition was inactive: -11.1%. With `CCOP(=O)(Nc1ccccc1)OCC` the inhibition was inactive: -9.28%. For `CN(C(=O)Cc1ccc(Cl)c(Cl)c1)[C@H]1CCCC[C@@H]1N1CCCC1`, the inhibition was inactive: -6.28%. For `CN(C)P(=O)(N(C)C)n1c(Nc2ccccc2)nnc1-c1ccccc1`, the inhibition was inactive: -5.96%. `O=C(O)c1ccccc1[As](=O)(O)O` was tested, and the inhibition was inactive: -0.552%. For `CC(=O)Nc1ccc([As](=O)(O)O)cc1`, the inhibition was inactive: 1.52%. With `CCCC1OP(N)(=O)OCC1CC` (stereo unspecified) the inhibition was inactive: 6.98%. With `Nc1cccc2ccc([As](=O)(O)O)cc12` the inhibition was inactive: -4.41%.
